Test results as given in ChEMBL document CHEMBL1140601, “Quantitative structure-activity relationship (QSAR) of tacrine derivatives against acetylcholinesterase (AChE) activity using variable selections” (Bioorg Med Chem Lett, 2007).

By UniProt entry, the sequences of proteins in these tests, tags left out. Where a name states a change or a piece, a line headed by the entry shows the natural chain unless it says otherwise.
UniProt P22303: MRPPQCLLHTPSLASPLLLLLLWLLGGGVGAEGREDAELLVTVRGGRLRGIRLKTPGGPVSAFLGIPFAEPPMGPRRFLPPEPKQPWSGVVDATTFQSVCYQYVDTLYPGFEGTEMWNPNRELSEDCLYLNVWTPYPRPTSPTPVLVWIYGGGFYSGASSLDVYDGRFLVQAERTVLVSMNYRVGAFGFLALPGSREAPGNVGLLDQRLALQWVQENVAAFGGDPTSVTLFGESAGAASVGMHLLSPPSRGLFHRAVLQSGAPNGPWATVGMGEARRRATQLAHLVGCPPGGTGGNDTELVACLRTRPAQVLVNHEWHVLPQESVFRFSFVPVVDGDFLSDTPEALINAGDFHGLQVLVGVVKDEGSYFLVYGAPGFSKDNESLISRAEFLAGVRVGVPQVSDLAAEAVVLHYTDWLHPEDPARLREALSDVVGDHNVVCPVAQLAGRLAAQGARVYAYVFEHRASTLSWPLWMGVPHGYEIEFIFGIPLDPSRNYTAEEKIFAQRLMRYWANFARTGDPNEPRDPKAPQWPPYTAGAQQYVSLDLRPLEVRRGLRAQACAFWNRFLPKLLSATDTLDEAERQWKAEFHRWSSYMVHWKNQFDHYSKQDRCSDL

Biological target: Acetylcholinesterase (Homo sapiens) (UniProt P22303)

Fc1ccc2c(NCCCCCCCNc3c4c(nc5cc(F)ccc35)CCCC4)c3c(nc2c1)CCCC3
logRA: 2.74
